{
  "sequences": {"note": "The chains behind the UniProt entries cited, without tags or fusion partners. Where a name states a change or a piece, a line headed by the entry shows the natural chain unless it says otherwise.", "UniProt P31949": "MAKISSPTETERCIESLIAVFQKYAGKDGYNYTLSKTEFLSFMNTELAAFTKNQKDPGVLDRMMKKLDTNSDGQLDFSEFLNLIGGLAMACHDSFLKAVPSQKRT", "UniProt P16070": "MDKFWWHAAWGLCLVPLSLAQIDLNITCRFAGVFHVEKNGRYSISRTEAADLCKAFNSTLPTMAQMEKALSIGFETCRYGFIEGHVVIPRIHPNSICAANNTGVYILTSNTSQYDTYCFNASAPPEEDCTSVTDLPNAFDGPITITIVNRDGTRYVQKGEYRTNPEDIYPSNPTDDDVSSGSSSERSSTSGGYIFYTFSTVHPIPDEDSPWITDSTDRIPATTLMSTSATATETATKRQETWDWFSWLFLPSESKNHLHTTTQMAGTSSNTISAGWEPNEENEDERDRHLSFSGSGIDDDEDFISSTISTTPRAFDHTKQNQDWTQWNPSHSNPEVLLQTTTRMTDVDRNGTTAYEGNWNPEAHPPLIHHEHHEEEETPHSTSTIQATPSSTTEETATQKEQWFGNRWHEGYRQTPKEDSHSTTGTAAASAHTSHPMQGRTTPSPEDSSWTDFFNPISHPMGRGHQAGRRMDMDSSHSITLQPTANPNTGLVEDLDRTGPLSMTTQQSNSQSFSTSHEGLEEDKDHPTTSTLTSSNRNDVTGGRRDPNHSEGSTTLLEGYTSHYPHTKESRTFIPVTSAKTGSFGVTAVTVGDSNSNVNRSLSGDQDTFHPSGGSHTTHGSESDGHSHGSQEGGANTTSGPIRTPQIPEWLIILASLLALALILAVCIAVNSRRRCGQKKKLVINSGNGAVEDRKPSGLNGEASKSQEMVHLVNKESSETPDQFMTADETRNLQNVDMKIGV"},
  "source": "paper PMC12280212",
  "key": {"Protein S100-A11": {"molecular_target": "Protein S100-A11 (UniProt P31949)", "assay": "cross-link between two proteins; cross-linking mass spectrometry"}, "CD44 antigen": {"molecular_target": "CD44 antigen (UniProt P16070)", "assay": "cross-link between two proteins; affinity purification or IP with mass spectrometry; cross-linking mass spectrometry"}},
  "data": [
    {"substance": "Annexin A2, P07355", "values": [
      {"measurement": "listed as a hit", "setting": "Protein S100-A11", "result": "yes"},
      {"measurement": "listed as a hit", "setting": "CD44 antigen", "result": "yes"}
    ]}
  ]
}
